Sequences of proteins named here, by UniProt entry; tags and fusion partners are left off. A change or cut given only in a name is not applied to a line headed by its entry.
UniProt Q12809: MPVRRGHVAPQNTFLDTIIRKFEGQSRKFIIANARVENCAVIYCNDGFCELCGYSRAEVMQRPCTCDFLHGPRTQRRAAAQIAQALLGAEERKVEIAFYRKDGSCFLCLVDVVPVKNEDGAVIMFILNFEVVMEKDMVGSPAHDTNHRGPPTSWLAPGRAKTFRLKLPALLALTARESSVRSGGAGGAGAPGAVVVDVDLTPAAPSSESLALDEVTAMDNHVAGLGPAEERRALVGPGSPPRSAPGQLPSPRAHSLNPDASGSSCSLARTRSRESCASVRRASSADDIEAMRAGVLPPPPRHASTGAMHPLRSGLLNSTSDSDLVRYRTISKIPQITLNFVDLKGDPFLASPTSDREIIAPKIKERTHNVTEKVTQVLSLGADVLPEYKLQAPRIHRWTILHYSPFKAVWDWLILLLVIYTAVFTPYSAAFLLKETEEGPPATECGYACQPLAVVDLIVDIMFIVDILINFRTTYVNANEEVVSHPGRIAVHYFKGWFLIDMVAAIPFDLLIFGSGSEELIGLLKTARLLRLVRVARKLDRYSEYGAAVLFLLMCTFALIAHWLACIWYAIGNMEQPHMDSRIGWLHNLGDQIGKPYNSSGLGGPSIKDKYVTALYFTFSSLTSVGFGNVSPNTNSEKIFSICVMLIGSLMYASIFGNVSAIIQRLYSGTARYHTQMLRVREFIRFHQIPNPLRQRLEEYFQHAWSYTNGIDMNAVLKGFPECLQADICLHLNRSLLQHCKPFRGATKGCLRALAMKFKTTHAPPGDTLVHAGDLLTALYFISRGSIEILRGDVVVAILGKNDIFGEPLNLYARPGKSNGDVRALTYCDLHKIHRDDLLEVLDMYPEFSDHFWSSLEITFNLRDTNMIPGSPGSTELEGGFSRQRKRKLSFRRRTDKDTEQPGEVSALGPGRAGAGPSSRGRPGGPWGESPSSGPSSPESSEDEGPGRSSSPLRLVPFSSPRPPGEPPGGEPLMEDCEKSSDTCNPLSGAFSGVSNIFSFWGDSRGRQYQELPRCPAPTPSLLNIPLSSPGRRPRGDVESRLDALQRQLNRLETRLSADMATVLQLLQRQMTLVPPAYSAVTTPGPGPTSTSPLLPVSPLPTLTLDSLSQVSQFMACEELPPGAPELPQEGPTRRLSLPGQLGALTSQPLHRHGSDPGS

The experiment has as its target Voltage-gated inwardly rectifying potassium channel KCNH2 (Homo sapiens, UniProt Q12809).
On to `CC(C)Oc1ccc(NC(=O)c2cc(N(C)Cc3ccc(F)cc3)ncn2)cc1`, for which the midpoint of inhibition, the IC50, lay at 4.1 µM. As to `CN(Cc1ccc(C(F)(F)F)nc1)c1cc(C(=O)Nc2nncs2)ncn1`, 14 µM corresponded to half-maximal inhibition (IC50).

`CN(Cc1ccc(C(F)(F)F)nc1)c1cc(C(=O)Nc2ccccc2)ncn1`: 5.6 µM corresponded to half-maximal inhibition (IC50). On to `CN1CCN(c2ccc(NC(=O)c3cc(N(C)Cc4ccc(C(F)(F)F)cc4)ncn3)cc2)CC1`, for which inhibition was half-maximal at 0.9 µM (IC50).

Consider `CN(Cc1ccc(C(F)(F)F)cc1)c1cc(C(=O)Nc2ccccc2)ncn1`, for which the 50% inhibitory concentration (IC50) stood at 3.3 µM.

Source of the values: ChEMBL document CHEMBL4028901, “Novel Antitubercular 6-Dialkylaminopyrimidine Carboxamides from Phenotypic Whole-Cell High Throughput Screening of a SoftFocus Library: Structure-Activity Relationship and Target Identification Studies” (J Med Chem, 2017).
